Literature values as cited in patent US20160258951A1, “METHODS OF MONITORING IMMUNE RESPONSES” (THE HENRY M. JACKSON FOUNDATION FOR THE ADVANCEMENT OF …, priority 2013, published 2016).

Assays:
[1] = system: patients with HER2/neu+ breast cancer; conditions: cited from earlier work
[2] = system: patients with low to intermediate HER2/neu expression; conditions: cited from earlier work

Molecule	clinical benefit of conferred immunity ([1]; breast cancer recurrence)	safety and stimulation of antigen-specific immunity ([1]; clinical vaccines in HER2/neu+ breast cancer)	clinical activity [2]
CC[C@H](C)[C@H](NC(=O)[C@@H](N)CCCCN)C(=O)N[C@@H](Cc1ccccc1)C(=O)NCC(=O)N[C@@H](CO)C(=O)N[C@@H](CC(C)C)C(=O)N[C@@H](C)C(=O)N[C@@H](Cc1ccccc1)C(=O)N[C@@H](CC(C)C)C(=O)O [E75, KIFGSLAFL]	clinical benefit in decreasing breast cancer recurrence	safe and effective in stimulating antigen-specific immunity	
Tz: recombinant, humanized monoclonal antibody that binds the extracellular juxtamembrane domain of HER2/neu protein			very limited activity
